This data set can be described thus: Drug release/delivery (pulse) time of capsule in stirred purified water at 37° C., spectrophotometric. The format is physicochemical. As to conditions: Example 3; standard deviation of 0.36; nominal delivery time five hours; hydrogel excipient. From the text: A coated gelatin capsule of the type shown in FIG. 1 was filled with hydrogel powder prepared as in Example 1 of particle size 425 to 710 microns, and metoclopramide drug included as a separate layer. The hydrogel powder was compacted leaving a 4.5 mm space between the top of the hydrogel layer 10 and the mouth of the body 6. The metoclopramide was placed on top and the body was sealed with a hydrogel plug. […] The nominal delivery time was three hours.
In order to assess the delivery time to release of the drug, each capsule was placed in a liter of purified water at 37° C. stirred with a paddle at 50 rpm. The presence of drug in the water was monitored spectrophotometrically.
The procedure was repeated with a capsule having a hydrogel plug designed to provide a nominal delivery time of five hours. […] The "space" represents the space between the top of the hydrogel layer and the mouth of the body after inclusion of the drug. The space allows insertion of the plug to its correct depth without interference from the hydrogel powder fill. In this case the hydrogel plug was recessed 0.5 mm below the upper end of the neck of the capsule body.
Drug release was monitored spectrophotometrically at 226 nm.

salbutamol sulphate registered a mean delivery time of 5.57 h.

These data come from patent US5897874A, “Expulsion of material from a delivery device” (R. P. Scherer Corporation, priority 1993, dated 1999).
